# In US5814612A, “Retinol derivatives and uses thereof” (priority 1992, dated 1998):
# Entries after “also recorded” stand apart in the source; their conditions may differ.
# Test system: thymocytes
# Experiment: Proliferation of anti-CD3 activated thymocytes in serum-free ITLB medium
# Type: cell-based, BALB/c mouse
# Experimental: FIG. 14A: Purified BALB/c thymocytes were activated with immobilized anti-CD3e antibody and cultivated for four days in ITLB medium with or without retinol (3×10^-6 M), 14HRR (6×10^-7 M) (fresh 14HRR was added every 12 hours), human serum (3%) or FCS (10%) at the cellular densities shown. Proliferation was assayed by tritiated thymidine incorporation into cellular DNA. The SDs were below 20%.
# FIG. 14B: BALB/c thymocytes (10^6 /ml) were added to microtiter plates coated with titrated amounts of anti-CD3e antibody with […] retinol or without, as indicated. Proliferation was measured in hexaduplicate wells on day 3 by ^3 H thymidine incorporation assay.
# Purified thymocytes (5×10^5 cells/well) were stimulated by TCR crosslinking with immobilized anti-CD3e antibody (FIG. 15A) or 0.4 μg/ml Con A (FIG. 15B) in serum-free ITLB medium. The indicated amounts of retinoids were added either once at the beginning of the experiment (marked as "1×") or every 12 hours thereafter (marked as "6×"). DNA synthesis was measured after 72 hours by tritiated thymidine uptake as described.
# Purified thymocytes (10^5 cells/well) were activated with anti-CD3 antibody in ITLB medium with or without retinol (3×10^-6 M), 14HRR (6×10^-7, added every 12 hours or human serum (3%)). DNA synthesis was measured daily by a 4 hour pulse of tritiated thymidine. SDs were ≤12%.
# Thymocytes (5×10^4 /well) were activated by immobilized anti-CD3 mAb in medium ITLB. […]
# Thymuses of 3 to 6-week-old BALB/c mice were teased in serum-free RPMI medium supplemented with 1% BSA, 10^-6 M linoleic acid and antibiotics. […] Cell viability was evaluated by trypan blue dye exclusion. To determine the extent of depletion of accessory cells, samples were stained with FITC-conjugated anti-Fc receptor antibody and analyzed by flow cytometry on a FACScan instrument (Becton Dickinson). No FcR-bearing cells were detected by this procedure. […]
substance,measurement,setting,value
IL-2: hrIL-2,ability of cytokine to replace retinol,absence of retinol,"None of the four interleukins, IL-1, IL-2, IL-4 or IL-6, was capable of overcoming the requirement for retinal; also recorded: none of the interleukins tested (IL-1, IL-2, IL-4 and IL-6) nor TNF-alpha are substitutes for retinol"
same,"growth-stimulating effect, anti-CD3, no Retinol","no retinol, 3 days, IL-1 10, IL-2 2, IL-4 5, IL-6 5, IFN-gamma 40, TNF-alpha 12, IL-2 + IL-4 2/5 U/ml",458 ± 156 CPM
same,"growth-stimulating effect, anti-CD3, 10^-6 M Retinol","with 10^-6 M retinol (head), 3 days, IL-1 10, IL-2 2, IL-4 5, IL-6 5, IFN-gamma 40, TNF-alpha 12, IL-2 + IL-4 2/5 U/ml, Retinol: stimulating agent none","77,343 ± 11,739 CPM"
